This note sets out measurements from patent US20070059311A1, “Regulation of the hedgehog signaling pathway and uses thereof” (priority 2005, published 2007).

Entries after “also recorded” stand apart in the source; their conditions may differ.

In one experiment the test system is Huh7 cells. Description: MTT cell growth assay. Conditions: KAAD-cyclopamine 2.5 μM. For orientation: Tetrazolium dyes change colour on reduction, which living cells bring about.
The next experiment deals with HepG2. Put plainly: MTT cell growth assay. To be noted: KAAD-cyclopamine 2.5 μM.

In the case of KAAD-cyclopamine, the “cell growth (MTT assay)” value in the experiment on Huh7 cells is “inhibited; also recorded: inhibition”; in the experiment on HepG2, “not affected and not”.
